Values of other authors in patent US6815446B1, “Selective antagonists of A2B adenosine receptors” (Vanderbilt University, priority 1999, dated 2004).

Target: T1, A2B Receptor (Homo sapiens, UniProt P29275)
T1 sequence (P29275 1-332): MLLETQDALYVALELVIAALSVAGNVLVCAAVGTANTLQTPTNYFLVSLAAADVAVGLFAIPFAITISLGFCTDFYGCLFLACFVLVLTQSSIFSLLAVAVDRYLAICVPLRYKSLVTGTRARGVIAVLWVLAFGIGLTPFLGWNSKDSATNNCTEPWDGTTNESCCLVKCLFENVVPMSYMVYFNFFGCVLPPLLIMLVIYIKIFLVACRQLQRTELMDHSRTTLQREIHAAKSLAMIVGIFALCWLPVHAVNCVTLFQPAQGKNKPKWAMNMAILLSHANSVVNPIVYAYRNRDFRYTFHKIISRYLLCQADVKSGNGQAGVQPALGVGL
Details: background statement; cited from earlier work

CNC(=O)[C@H]1O[C@@H](n2cnc3c(NCc4cccc(I)c4)ncnc32)[C@H](O)[C@@H]1O [IB-MECA]
Agonist activity or affinity at A2B receptors: very low affinity
